Assay results as given in patent US20180214395A1 (priority 2017, published 2018).

By UniProt entry, the sequences of proteins in these tests, tags left out. Residues count along the entry.
UniProt Q13224, 27-1484: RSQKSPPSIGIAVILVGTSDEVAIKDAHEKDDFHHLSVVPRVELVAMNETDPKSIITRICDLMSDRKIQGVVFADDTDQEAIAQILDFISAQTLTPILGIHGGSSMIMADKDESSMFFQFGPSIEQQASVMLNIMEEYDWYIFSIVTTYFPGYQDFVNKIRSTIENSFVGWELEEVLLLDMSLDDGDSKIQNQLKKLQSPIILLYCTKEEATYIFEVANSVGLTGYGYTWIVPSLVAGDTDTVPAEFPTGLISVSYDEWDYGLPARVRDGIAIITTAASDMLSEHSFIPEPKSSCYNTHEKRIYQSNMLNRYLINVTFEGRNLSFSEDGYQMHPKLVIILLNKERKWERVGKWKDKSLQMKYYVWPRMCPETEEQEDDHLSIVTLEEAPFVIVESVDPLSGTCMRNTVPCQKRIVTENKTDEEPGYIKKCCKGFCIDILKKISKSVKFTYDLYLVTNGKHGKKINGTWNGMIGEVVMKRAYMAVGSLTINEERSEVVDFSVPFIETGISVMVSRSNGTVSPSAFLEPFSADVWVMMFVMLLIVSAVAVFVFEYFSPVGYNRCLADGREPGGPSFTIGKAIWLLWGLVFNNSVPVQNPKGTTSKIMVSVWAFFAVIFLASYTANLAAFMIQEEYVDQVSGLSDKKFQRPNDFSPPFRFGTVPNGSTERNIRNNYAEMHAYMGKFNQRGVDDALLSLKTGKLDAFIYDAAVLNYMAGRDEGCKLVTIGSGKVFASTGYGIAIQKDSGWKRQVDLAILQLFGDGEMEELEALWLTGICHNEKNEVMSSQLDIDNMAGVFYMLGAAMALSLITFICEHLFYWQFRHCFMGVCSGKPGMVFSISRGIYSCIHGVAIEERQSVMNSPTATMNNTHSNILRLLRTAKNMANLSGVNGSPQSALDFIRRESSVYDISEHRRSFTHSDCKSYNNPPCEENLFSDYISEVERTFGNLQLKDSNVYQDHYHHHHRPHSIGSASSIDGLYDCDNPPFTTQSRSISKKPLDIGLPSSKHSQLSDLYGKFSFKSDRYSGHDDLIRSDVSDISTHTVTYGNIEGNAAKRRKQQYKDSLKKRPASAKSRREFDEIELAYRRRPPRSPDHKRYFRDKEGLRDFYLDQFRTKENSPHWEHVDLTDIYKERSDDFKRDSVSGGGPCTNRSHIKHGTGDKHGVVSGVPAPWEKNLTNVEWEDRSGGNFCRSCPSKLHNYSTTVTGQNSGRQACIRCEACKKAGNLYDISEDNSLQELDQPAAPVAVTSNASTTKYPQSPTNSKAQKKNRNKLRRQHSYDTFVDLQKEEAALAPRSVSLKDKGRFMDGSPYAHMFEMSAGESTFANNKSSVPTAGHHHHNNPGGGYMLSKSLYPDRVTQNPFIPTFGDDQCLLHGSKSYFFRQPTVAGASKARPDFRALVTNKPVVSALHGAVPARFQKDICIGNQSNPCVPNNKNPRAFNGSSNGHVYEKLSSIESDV
UniProt Q12879, 23-1464: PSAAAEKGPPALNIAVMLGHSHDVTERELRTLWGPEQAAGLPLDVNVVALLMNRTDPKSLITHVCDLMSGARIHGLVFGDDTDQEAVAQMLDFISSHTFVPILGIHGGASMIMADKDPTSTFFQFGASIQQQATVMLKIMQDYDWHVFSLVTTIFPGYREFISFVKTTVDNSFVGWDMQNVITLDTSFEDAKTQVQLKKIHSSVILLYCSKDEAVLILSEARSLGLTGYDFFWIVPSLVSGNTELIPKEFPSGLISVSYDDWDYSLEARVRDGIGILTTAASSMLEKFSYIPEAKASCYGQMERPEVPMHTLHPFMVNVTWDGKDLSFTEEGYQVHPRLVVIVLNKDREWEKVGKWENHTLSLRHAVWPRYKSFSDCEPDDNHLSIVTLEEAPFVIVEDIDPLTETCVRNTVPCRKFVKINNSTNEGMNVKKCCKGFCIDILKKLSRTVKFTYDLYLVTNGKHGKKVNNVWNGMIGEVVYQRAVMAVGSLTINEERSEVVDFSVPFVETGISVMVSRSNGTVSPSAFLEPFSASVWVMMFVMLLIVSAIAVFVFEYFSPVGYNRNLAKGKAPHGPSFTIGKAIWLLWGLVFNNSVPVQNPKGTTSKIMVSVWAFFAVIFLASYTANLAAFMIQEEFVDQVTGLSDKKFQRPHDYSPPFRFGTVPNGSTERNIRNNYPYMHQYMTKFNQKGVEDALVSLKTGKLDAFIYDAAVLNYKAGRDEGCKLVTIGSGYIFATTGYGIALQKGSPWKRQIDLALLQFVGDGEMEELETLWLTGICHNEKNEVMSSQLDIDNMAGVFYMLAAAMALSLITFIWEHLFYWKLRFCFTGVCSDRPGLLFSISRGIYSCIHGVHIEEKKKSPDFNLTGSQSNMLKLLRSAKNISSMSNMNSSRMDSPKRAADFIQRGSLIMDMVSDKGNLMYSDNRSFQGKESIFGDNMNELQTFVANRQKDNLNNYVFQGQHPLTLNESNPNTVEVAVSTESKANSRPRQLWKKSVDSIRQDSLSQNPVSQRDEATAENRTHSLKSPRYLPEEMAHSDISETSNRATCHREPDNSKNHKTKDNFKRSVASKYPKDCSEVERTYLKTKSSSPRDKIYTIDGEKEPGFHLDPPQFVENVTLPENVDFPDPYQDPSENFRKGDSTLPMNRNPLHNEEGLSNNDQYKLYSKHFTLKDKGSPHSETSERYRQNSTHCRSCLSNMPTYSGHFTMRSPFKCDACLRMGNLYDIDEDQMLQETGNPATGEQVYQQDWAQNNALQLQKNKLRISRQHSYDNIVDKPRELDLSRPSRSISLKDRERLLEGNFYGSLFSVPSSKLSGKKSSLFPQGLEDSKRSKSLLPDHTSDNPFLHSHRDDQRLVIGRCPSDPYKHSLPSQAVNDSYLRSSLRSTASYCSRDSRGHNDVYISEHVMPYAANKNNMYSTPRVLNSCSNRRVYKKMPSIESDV
UniProt Q63380, 1-617: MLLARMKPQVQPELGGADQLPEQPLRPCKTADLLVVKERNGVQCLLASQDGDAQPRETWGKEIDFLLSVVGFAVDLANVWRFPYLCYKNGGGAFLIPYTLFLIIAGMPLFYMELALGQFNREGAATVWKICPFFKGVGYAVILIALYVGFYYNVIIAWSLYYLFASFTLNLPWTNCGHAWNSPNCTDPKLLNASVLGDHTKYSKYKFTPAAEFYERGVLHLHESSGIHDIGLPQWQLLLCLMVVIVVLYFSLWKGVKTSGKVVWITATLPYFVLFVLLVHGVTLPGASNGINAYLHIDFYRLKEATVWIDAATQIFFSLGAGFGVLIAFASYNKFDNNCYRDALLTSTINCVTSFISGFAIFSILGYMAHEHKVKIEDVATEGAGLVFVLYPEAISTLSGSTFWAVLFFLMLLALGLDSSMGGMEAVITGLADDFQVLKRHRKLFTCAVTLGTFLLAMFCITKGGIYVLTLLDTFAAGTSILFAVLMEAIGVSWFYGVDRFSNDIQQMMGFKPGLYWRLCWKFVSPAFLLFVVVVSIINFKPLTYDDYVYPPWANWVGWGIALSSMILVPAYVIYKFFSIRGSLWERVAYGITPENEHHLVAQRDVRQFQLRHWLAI

Key:
[1] = molecular target: T1, human cloned NMDA NR1/NR2B receptors expressed in HEK293 cells (Homo sapiens, UniProt Q05586+Q13224); conditions: for IC50: read-out: NR1/NR2B EC/IC50 (IC50)
[2] = molecular target: T2, human cloned NMDA NR1/NR2A receptors expressed in HEK293 cells (Homo sapiens, UniProt Q05586+Q12879); conditions: for IC50: read-out: NR1/NR2A EC/IC50 (IC50)
[3] = molecular target: T3, norepinephrine transporter (NET) (Rattus norvegicus, UniProt Q63380); assay: Norepinephrine uptake assay; type: biochemical; conditions: Study 1, test concentration 1.0E−05 M; for % Inhibition of Control Values, 1st: 1st replicate; for % Inhibition of Control Values, 2nd: 2nd replicate; for % Inhibition of Control Values, Mean: mean of replicates
T3 construct: tissue Eurofins Cerep; host or cells: rat hypothalamus synaptosomes (own knowledge of the vendor's assay)

[4] = molecular target: T1, human cloned NMDA NR1/NR2B receptors expressed in HEK293 cells; assay: cell-based; conditions: NR1/NR2B EC/IC50 (IC50)
[5] = molecular target: T2, human cloned NMDA NR1/NR2A receptors expressed in HEK293 cells; assay: cell-based; conditions: NR1/NR2A EC/IC50 (IC50)
[6] = peak current amplitude, 10 μM glutamate, 50 μM glycine
[7] = steady state current amplitude, 2 seconds after application

Row | Compound | NR1/NR2B HillSlope ([1]; peak current amplitude) | IC50 [1, 6] [µM] | IC50 [1, 7] [µM] | NR1/NR2B HillSlope ([1]; steady state current amplitude) | NR1/NR2A HillSlope ([2]; peak current amplitude) | IC50 [2, 6] [µM] | IC50 [2, 7] [µM] | NR1/NR2A HillSlope ([2]; steady state current amplitude) | % Inhibition of Control Values, 1st [3] [%] | % Inhibition of Control Values, 2nd [3] [%] | % Inhibition of Control Values, Mean [3] [%] | IC50 [4, 6] [µM] | IC50 [4, 7] [µM] | IC50 [5, 6] [µM] | IC50 [5, 7] [µM]
1 | Levorphanol Tartrate | −1.09 | 3.81 | 3.59 | −0.98 | 0.75 | 2.68 | 1.88 | −0.78 | – | – | – | – | – | – | –
2 | CCC(=O)C(C[C@H](C)N(C)C)(c1ccccc1)c1ccccc1 [d-methadone] | – | – | – | – | – | – | – | – | 70.3 | 53.0 | 61.6 | – | – | – | –
3 | CN[C@]1(c2ccccc2Cl)CCCCC1=O.Cl [S-(+)-Ketamine HCL] | −0.85 | 3.28 | 2.88 | −0.99 | 0.86 | 7.56 | 4.41 | −0.85 | – | – | – | – | – | – | –
4 | CC[C@@H](c1cccc(O)c1)[C@@H](C)CN(C)C [tapentadol hydrochloride, reference compound] | – | – | – | – | – | – | – | – | 103.4 | 84.8 | 94.1 | – | – | – | –
5 | CNC1(c2ccccc2Cl)CCCCC1=O (centres unmarked) [Ketamine HCL] | −1.01 | – | – | −0.97 | 1.55 | – | – | −1.62 | – | – | – | 2.69 | 2.38 | 8.07 | 6.19
6 | CCC(=O)C(C[C@@H](C)N(C)C)(c1ccccc1)c1ccccc1 (racemic) [l-methadone, reference compound] | – | – | – | – | – | – | – | – | 96.5 | 84.1 | 90.3 | – | – | – | –
7 | [2H]C([2H])([2H])CC(=O)C(C[C@H](C)N(C([2H])([2H])[2H])C([2H])([2H])[2H])(c1ccccc1)c1ccccc1 | – | – | – | – | – | – | – | – | 69.7 | 53.0 | 61.4 | – | – | – | –
8 | c1ccc(C2(N3CCCCC3)CCCCC2)cc1 [Phencyclidine HCL] | −0.58 | – | – | −0.56 | 0.60 | – | – | −0.73 | – | – | – | 1.41 | 1.14 | 4.57 | 2.69

Structures can show the parent of a compound that is named as a salt. Where two headings read alike, the source gives them in different places.
